Each structure is given as a SMILES string.

The nature of the test: Displacement of C18-Aib-lucifer yellow from HIV1 envelope glycoprotein gp41 Fe(env2.0)3 by fluorescence assay. On the set-up: species or system Human immunodeficiency virus 1.
As a reminder, the Ki is a measure of affinity in units of concentration, obtained from inhibition or displacement. A higher Ki goes with weaker binding. In turn, `CC(C)C[C@H](NC(=O)c1ccc(NC(=O)[C@@H](N)Cc2c[nH]c3ccccc23)c(OCCc2c[nH]c3ccccc23)c1)C(=O)O` registered a Ki of 1300 nM.
Regarding `COc1ccc(C[C@H](N)C(=O)Nc2ccc(C(=O)N[C@@H](CC(C)C)C(=O)O)cc2OCCc2c[nH]c3ccccc23)cc1`, the affinity, expressed as Ki, was 3900 nM.
On to `CC(C)C[C@H](NC(=O)c1ccc(NC(=O)[C@@H](N)Cc2ccc(O)cc2)c(OCCc2c[nH]c3ccccc23)c1)C(=O)O`, for which the inhibition constant Ki was found to be 1300 nM.

The values above are taken from ChEMBL document CHEMBL2029314, “Discovery of HIV fusion inhibitors targeting gp41 using a comprehensive α-helix mimetic library” (Bioorg Med Chem Lett, 2012).
